Protein sequences, listed by entry. Tags and fused reporters are not part of them.
UniProt P33535, whole entry: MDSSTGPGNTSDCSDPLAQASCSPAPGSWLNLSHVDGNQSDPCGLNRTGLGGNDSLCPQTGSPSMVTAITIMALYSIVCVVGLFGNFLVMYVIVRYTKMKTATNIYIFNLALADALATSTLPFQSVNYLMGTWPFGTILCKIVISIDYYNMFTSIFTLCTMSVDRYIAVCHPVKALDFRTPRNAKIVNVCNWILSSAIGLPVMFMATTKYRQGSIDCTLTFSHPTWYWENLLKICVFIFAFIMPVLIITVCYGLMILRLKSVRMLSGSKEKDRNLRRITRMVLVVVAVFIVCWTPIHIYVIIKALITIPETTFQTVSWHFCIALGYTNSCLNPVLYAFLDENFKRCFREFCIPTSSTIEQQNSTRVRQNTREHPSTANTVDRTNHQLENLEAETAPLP

According to article PMC7545175 (Scientific Reports, 2020):

Target: mu opioid receptor (MOR) (Rattus norvegicus, UniProt P33535)
Assay: [[…] radioligand binding assay, HEK-MOR membranes
Conditions: read-out: Kd value in MOR, used for the Ki calculation

[3H]diprenorphine
Kd: 0.4 nM

Only a part of the results on these compounds is given; other tests are left out.
